Assay results taken from patent US6297237A, “Process for the preparation of aminocarbonyl derivatives of geneseroline having selective brain anticholinesterase activity” (priority 1997, dated 2001).

Protein sequences, listed by entry. Tags and fused reporters are not part of them. Residues count along the entry.
UniProt P06276, 29-602: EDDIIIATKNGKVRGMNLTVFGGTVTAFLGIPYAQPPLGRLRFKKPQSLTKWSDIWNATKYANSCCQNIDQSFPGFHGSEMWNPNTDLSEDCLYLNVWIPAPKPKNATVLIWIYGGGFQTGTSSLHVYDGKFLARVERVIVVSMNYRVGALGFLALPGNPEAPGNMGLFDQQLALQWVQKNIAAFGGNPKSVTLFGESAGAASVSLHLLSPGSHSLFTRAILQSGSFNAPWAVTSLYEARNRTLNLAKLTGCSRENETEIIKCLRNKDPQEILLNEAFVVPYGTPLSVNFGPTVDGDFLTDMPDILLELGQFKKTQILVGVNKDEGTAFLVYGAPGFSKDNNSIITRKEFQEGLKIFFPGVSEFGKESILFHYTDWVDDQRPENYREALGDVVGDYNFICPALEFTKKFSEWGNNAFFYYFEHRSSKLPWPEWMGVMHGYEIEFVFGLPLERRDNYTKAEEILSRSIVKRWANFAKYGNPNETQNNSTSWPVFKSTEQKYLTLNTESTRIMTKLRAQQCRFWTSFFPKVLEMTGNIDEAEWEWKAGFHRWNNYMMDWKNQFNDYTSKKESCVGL

Molecular target: T1, human plasma BuChE (Homo sapiens, UniProt P06276)
T1 construct: human plasma BuChE; from tissue; host or cells: human plasma
Test: In vitro inhibition of human plasma BuChE (Table 3)
Assay type: biochemical
Settings: n = 4-8, read-out: BuChE IC50 (μM) ± s.e.

Structure (SMILES): CCN(C)C(=O)Oc1cccc([C@H](C)N(C)C)c1 [SDZ-ENA 713, reference compound]
- IC50: 0.45 ± 0.02 µM
